Source: patent USRE32519E, “Sulfur-containing isoquinoline derivatives, process for the preparation thereof and pharmaceutical compositions containing them” (Chinoin Gyogyszer es Vegyeszeti Termekek Gyara, priority 1979, dated 1987)

Tested on: histamine
Experiment: antagonistic activity against histamine on ileum of guinea pigs

Which inhibition against histamine (50 μg/ml. antagonistic dose) does the source give for `Cn1c(=O)c2[nH]cnc2n(C)c1=O` [theophylline, reference compound] here?
The inhibition against histamine was 18%.

And the “maximum inhibition (histamine)” value (in a dose of 200 μg/ml.)?
Its value is 37%.
